Measurements published in ChEMBL document CHEMBL4219032, “Triple Reuptake Inhibitors as Potential Therapeutics for Depression and Other Disorders: Design Paradigm and Developmental Challenges” (J Med Chem, 2018).

Sequences of proteins named here, by UniProt entry; tags and fusion partners are left off.
UniProt Q9WTR4, whole entry: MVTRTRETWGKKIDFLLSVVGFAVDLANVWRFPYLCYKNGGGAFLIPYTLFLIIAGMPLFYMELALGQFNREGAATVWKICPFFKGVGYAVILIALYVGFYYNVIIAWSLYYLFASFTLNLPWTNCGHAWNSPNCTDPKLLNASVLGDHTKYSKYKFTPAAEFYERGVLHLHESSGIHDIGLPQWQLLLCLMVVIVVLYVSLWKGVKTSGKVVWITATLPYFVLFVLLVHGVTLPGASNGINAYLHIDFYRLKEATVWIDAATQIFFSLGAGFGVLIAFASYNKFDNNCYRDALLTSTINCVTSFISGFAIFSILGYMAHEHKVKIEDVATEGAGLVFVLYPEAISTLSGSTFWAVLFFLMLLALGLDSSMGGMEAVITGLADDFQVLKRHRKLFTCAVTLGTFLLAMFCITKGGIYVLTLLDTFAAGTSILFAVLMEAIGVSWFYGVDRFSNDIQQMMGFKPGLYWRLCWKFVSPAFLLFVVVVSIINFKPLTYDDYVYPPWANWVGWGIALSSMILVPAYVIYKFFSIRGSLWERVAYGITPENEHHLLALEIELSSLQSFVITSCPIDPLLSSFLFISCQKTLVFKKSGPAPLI

Biological target: Norepinephrine transporter (Rattus norvegicus, UniProt Q9WTR4)
Assay: Inhibition of rat brain NET assessed as reduction of [3H]-NE re-uptake preincubated for 30 mins followed by [3H]-NE addition measured after 5 mins by scintillation counting

NC(=O)C[S+]([O-])C(c1ccccc1)c1ccccc1 (stereo unspecified) [MODAFINIL]
IC50: > 10 µM
